Measurements reported in patent US9783535B2 (priority 2012, dated 2017).

Test: CNS penetration across the blood brain barrier
Set-up: species or system mice
Conditions: mouse, in vivo
Method: Mice are dosed with compounds. Brain to blood ratios are determined by HPLC and LC/MS/MS analysis following oral administration of the test compounds in mice.

Substance: Ibogaine
- Crossing of the BBB and brain concentration: cross the BBB and reach micromolar concentrations in brain
